Measured values: paper PMC5041457, “Synergy and antagonism in regulation of recombinant human INO80 chromatin remodeling complex” (Nucleic Acids Research, 2016)
Blank lines part the entries; values can stand above or below the substance they belong to.

Assays:
[1] = system: Nc1ncnc2c1ncn2[C@@H]1O[C@H](COP(=O)(O)OP(=O)(O)OP(=O)(O)O)[C@@H](O)[C@H]1O; assay: purified protein; conditions: basal, no nucleosome, ATP:MgCl2:TRIS base 1:1:2, 37°C
[2] = target: human H2A-containing nucleosome labeled on histone H3 with AlexaFluor 647 (human) (UniProt P04908); assay: MST; labelled nucleosome fixed at 100 nM, two fold serial dilution of Ino80 complex; 25 mM HEPES, 50 mM NaCl, 1 mM TCEP, 10% glycerol, pH 8.0; 37°C; Kd fitted on temperature jump data
[3] = system: hIno80 core complex (wild type): Ino80ΔN, actin, Arp4, Arp5, Arp8, Ies2, Ies6, Tip49a, Tip49b (human); assay: MST; conditions: MST: 25 mM HEPES, 50 mM NaCl, 1 mM TCEP, 10% glycerol, pH 8.0, 37 C, 100 nM nucleosome, ligand experiments with 5 mM MgCl2
[4] = system: hIno80 core complex ΔArp5 ΔIes6 (human); assay: MST; conditions: MST: 25 mM HEPES, 50 mM NaCl, 1 mM TCEP, 10% glycerol, pH 8.0, 37 C, 100 nM nucleosome; ligand experiments with 5 mM MgCl2
[5] = system: hIno80 core complex ΔIes2 (human); assay: MST; conditions: MST: 25 mM HEPES, 50 mM NaCl, 1 mM TCEP, 10% glycerol, pH 8.0, 37 C, 100 nM nucleosome; ligand experiments with 5 mM MgCl2
[6] = target: human H2A.Z-containing nucleosome (human) (UniProt P0C0S5); assay: MST; labelled nucleosome fixed at 100 nM, two fold serial dilution of Ino80 complex; 25 mM HEPES, 50 mM NaCl, 1 mM TCEP, 10% glycerol, pH 8.0; 37°C; Kd fitted on temperature jump data
[7] = target: human H2A-containing nucleosome labeled on histone H3 with AlexaFluor 647 (human) (UniProt P04908); assay: MST; no ligand, 5 mM MgCl2; conditions: complex
[8] = target: human H2A-containing nucleosome labeled on histone H3 with AlexaFluor 647 (human) (UniProt P04908); assay: MST; +ATP, 5 mM MgCl2; conditions: complex
[9] = target: human H2A-containing nucleosome labeled on histone H3 with AlexaFluor 647 (human) (UniProt P04908); assay: MST; 5 mM MgCl2, no ligand; conditions: complex
[10] = target: human H2A-containing nucleosome labeled on histone H3 with AlexaFluor 647 (human) (UniProt P04908); assay: MST; +IP6, +ATP, 5 mM MgCl2; conditions: complex
[11] = target: human H2A-containing nucleosome labeled on histone H3 with AlexaFluor 647 (human) (UniProt P04908); assay: MST; 1 mM ATP, 5 mM MgCl2; conditions: complex
[12] = target: human H2A-containing nucleosome labeled on histone H3 with AlexaFluor 647 (human) (UniProt P04908); assay: MST; 1 mM ATP + 250 uM IP6, 5 mM MgCl2; conditions: complex
[13] = target: human H2A-containing nucleosome labeled on histone H3 with AlexaFluor 647 (human) (UniProt P04908); assay: MST; as a7 but in the presence and absence of ligands: 1 mM ATP, IP6 (250 μM by the legend, 2 mM by the methods), 5 mM MgCl2

Substance: hIno80ΔArp5/Ies6 complex (Homo sapiens)
Km [1]: 225 ± 63 µM
kcat [1]: 2.4 ± 0.2 ATP/complex/min

Kd [2]: 106 nM
Substance: hIno80ΔArp5/Ies6 complex (from UniProt Q9ULG1 267-1556; P60709 1-375; O96019 1-429; Q9H981 1-624; Q9C086 1-356; Q9Y265 1-456; Q9Y230 1-463)

Substance: hIno80ΔArp5/Ies6/Ies2 complex (Homo sapiens)
Km [1]: 244 ± 116 µM
kcat [1]: 1.2 ± 0.2 ATP/complex/min

Substance: hIno80ΔIes2 complex (Homo sapiens)
Km [1]: 273 ± 36 µM
kcat [1]: 2.8 ± 0.1 ATP/complex/min

Kd [2]: 29.7 nM
Substance: hIno80ΔIes2 complex (from UniProt Q9ULG1 267-1556; P60709 1-375; O96019 1-429; Q9H9F9 1-607; Q9H981 1-624; Q6PI98 1-192; Q9Y265 1-456; Q9Y230 1-463)

Substance: human H2A mononucleosome (Table 1)
Kd [3]: 20.7 nM
Kd [4]: 106 nM
Kd [5]: 29.7 nM

Substance: human H2A-NCP, 100 bp overhang, H3AF647
Kd ([3]; 5 mM MgCl2, 1 mM ATP, IP6 (250 uM in Figure 3 legend; 2 mM in Methods)): 321 nM
Kd ([3]; 5 mM MgCl2, ligand label not in material (probably no ligand)): 22.9 nM
Kd ([3]; 5 mM MgCl2, ligand label not in material): 53.3 nM

Substance: human H2A.Z mononucleosome (Table 1)
Kd [3]: 54.1 nM

Kd [6]: 54.1 nM
Kd [2]: 20.7 nM
Kd [7]: 23 nM
Kd [8]: 53.3 nM
Kd [9]: 22.9 nM
Kd [10]: 321 nM
Kd [11]: 53 nM
Kd [12]: 321 nM
fold decrease in affinity in the presence of IP6 and ATP [13]: > 10 fold
Substance: human Ino80 core complex (hIno80) (from UniProt Q9ULG1 267-1556; P60709 1-375; O96019 1-429; Q9H9F9 1-607; Q9H981 1-624; Q9C086 1-356; Q6PI98 1-192; Q9Y265 1-456; Q9Y230 1-463)
